Measurements from patent US9789116B2, “Compositions and methods of modulating short-chain dehydrogenase activity” (CASE WESTERN RESERVE UNIVERSITY, priority 2013, dated 2017).

Amino acid sequences for entries named in this document (tags omitted).
UniProt P15428, whole entry: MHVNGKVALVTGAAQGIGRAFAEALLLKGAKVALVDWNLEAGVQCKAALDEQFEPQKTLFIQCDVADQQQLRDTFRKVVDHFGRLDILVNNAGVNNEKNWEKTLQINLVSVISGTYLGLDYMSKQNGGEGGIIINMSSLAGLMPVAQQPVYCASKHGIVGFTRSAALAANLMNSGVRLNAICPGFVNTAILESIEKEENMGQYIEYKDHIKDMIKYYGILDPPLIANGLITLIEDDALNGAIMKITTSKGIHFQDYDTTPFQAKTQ

Assays:
A549 cells = experiment: PGE2 levels in medium of IL1-beta stimulated A549 cells; assay type: cell-based; details: IL1-beta 23 hours, compound added for the last 5 hours
[1] = test system: 15-PGDH activity in cell lines; experiment: Total 15-PGDH activity in lysates of treated cell lines (tritium method); details: FIG. 13
recombinant 15-PGDH = recombinant 15-PGDH (Homo sapiens (Human), UniProt P15428); experiment: Melting temperature shift of recombinant 15-PGDH (SYPRO Orange); assay type: binding; details: 10 μM and 100 μM cofactor (NAD, NADH)
15-PGDH protein = 15-PGDH protein levels in cell lines (western blot, immuno-fluorescence)
15-PGDH mRNA = 15-PGDH mRNA levels in colon cancer cell lines by real-time PCR; details: treated colon cancer cell lines

direct binding to 15-PGDH by melting temperature shift (recombinant 15-PGDH): evidence of direct binding to 15-PGDH
SMILES: COc1ccc(-c2cc(C(F)(F)F)n3nc(C(=O)N4CCCCC4)cc3n2)cc1
15-PGDH activity in cells as reflected in PGE2 levels in medium (A549 cells): clear inhibition of 15-PGDH activity in the cells
15-PGDH activity in treated cells (tritium method) [1]: increasing 15-PGDH activity in most cell lines
levels of 15-PGDH protein (wt-PGDH) from cDNA expression vector (15-PGDH protein; 5 μM, V400-S3-2-32 cells): increases levels of 15-PGDH protein
15-PGDH protein levels by immuno-fluorescence and western blot (15-PGDH protein; V503 cells): increase in 15-PGDH protein levels
15-PGDH protein levels (western blot) (15-PGDH protein; colon cell lines): increases 15-PGDH protein levels
15-PGDH mRNA levels (15-PGDH mRNA): do not in general alter 15-PGDH mRNA levels
